Earlier results as cited in US5763404A, “Methods for using LHRH antagonists with low histamine release” (priority 1995, dated 1998).

Tested on: rats
Conditions: administered to rats; cited from earlier work

For “[N-Ac-D-2-Nal^1,D-4-F-Phe^2,D-Trp^3,D-Arg^6 ]-LHRH”, the edema is given as “caused edema of the face and extremities”.
